Data: PubChem BioAssay AID1347073 (National Center for Advancing Translational Sciences (NCATS), 2019)
This is a selection; strong and weak results do not stand in their true shares. Some of these compounds have results that are not shown, active ones among them. Records with an inconclusive call do not appear. Active and inactive are the calls of the source. Calls come from the whole dose curve; as a rule, active = well fitted activation curve with a large enough effect; inconclusive = small, poorly fitted or top-dose-only effect; inactive = no such curve, though single readings can be large or run the other way.

Assay: qHTS of TDP-43 Inhibitors: NCGC Sytravon Library Screen; note: 0% is about no effect; nearly all actives have a fitted effect of over 55% in size
Conditions: yeast TDP-43 toxicity rescue, BacTiter-Glo growth, 24 h; at 46.1 µM (top of the series)
Excerpt: The goal of this project is to identify new chemical probes capable of reversing the toxicity associated with TDP-43 which is associated with frontotemporal lobar degeneration and amyotrophic lateral sclerosis. These compounds will provide a complementary approach to deciphering the tangled mechanisms of toxicity and protection that we have uncovered through genome-wide genetic screens and are beginning to uncover in a large-scale proteomics analysis with mass spectroscopy. To this end, a miniaturized assay was developed to be screened against the Molecular Libraries Small Molecule Repository (MLSMR) to discover TDP-43 inhibitors. Please note that in the set-up this yeast-based assay compounds that inhibit as TDP-43, have a read-out as activators. NIH Chemical Genomics Center [NCGC] NIH Molecular Libraries Probe Centers Network [MLPCN] Assay Submitter (PI): Susan Lindquist, Whitehead Institute/MIT MLPCN Grant: R21 NS060957
Dispense 2.5 microL yeast galactose medium per 1536-well plate, pin compound, dispense 2.5 microL TDP-43 expressing yeast in galactose medium at OD600=0.02 (pregrown in raffinose medium to mid-log phase) per well, incubate for 24 hr at 30 deg C, and cell growth will be measured using 5 microL of Bactiter/Glo reagent to entire plate and read using Luminescence Protocol in ViewLux.

Structure (SMILES)	growth rescue (activation)
O=C(OC1CN2CCC1CC2)C(CO)(c1ccccc1)c1ccccc1 (configuration not stated)	inactive: 5.62%
CN(C)C1(CNC(=O)c2ccc(Br)cc2)CCCCC1	inactive: -5.47%
CN(C)C1CCCC1OC(=O)C(O)(c1ccccc1)c1ccccc1 (configuration not stated)	inactive: 3.88%
O=C(NCC1(N2CCCCC2)CCCCC1)c1cccc(Br)c1	inactive: 12.2%
Cc1cc(C(=O)NCC2(N3CCCCC3)CCCCC2)ccc1[N+](=O)[O-]	inactive: 12.4%
Cc1ccc(C(=O)NCC2(N3CCCCC3)CCCCC2)cc1	inactive: -25.4%
CCN(CC)CC(C)C(C)OC(=O)C(O)(c1ccccc1)c1ccccc1 (configuration not stated)	inactive: 29%
